From patent US10124004B2, “Pyrido[3,4-d]pyrimidine derivative and pharmaceutically acceptable salt thereof” (Teijin Pharma Limited, priority 2015, dated 2018)
pIC50: −log10 of the molar value. Like-named read-outs stand apart in the source and are kept apart here.

Chains of the proteins cited; added tags and fusions are not shown.
UniProt P11802, whole entry: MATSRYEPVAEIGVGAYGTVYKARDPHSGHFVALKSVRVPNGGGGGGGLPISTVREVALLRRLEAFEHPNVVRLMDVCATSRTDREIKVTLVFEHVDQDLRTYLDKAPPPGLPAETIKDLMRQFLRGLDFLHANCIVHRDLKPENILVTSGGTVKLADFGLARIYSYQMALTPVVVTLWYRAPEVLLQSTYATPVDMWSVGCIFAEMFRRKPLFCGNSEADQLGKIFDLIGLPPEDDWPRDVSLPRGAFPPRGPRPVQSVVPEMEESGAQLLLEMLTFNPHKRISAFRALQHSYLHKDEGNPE
UniProt P30281, whole entry partner: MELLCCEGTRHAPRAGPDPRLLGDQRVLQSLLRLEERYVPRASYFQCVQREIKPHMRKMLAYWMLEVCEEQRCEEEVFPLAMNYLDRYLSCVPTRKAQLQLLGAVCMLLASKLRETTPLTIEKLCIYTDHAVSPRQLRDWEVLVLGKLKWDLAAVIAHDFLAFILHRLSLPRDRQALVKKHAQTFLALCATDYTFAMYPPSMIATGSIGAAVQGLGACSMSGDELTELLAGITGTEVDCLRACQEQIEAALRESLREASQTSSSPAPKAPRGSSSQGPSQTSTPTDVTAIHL

Columns and labels:
CDK2/cyclin A2 = CDK2/cyclin A2 (Homo sapiens, UniProt P24941); assay: Human CDK2/cyclin A2 inhibitory activity (QS S Assist CDK2/Cyclin A2_FP Kit, IMAP fluorescence polarization); conditions: read-out: CDK2 Activity symbol
Protocol: Human CDK2/Cyclin A^2 Inhibitory Activity
(§1) Each compound was analyzed for CDK2/cyclin A2 inhibitory activity with an assay kit (QS S Assist CDK2/Cyclin A2_FP Kit, available from Carna Biosciences, Inc.). This assay kit determines kinase activity on the basis of the IMAP technology by Molecular Devices. Specifically, the kinase activity is determined through quantification of a variation in fluorescent polarization caused by binding of a kinase-phosphorylated fluorescent substance to an IMAP-binding reagent.
An assay buffer was prepared by 10-fold dilution of the 10× assay buffer attached to the kit with distilled water, and each solution was prepared with the assay buffer. The assay buffer contained 20 mM HEPES (pH 7.4), 0.01% Tween 20, and 2 mM dithiothreitol. A test compound solution was prepared by dilution of the test compound with dimethyl sulfoxide (DMSO) to a concentration 100 times higher than the final concentration and then 25-fold dilution with the assay buffer to a concentration four times higher than the final concentration. An ATP/substrate/Metal solution was prepared by five-fold dilution of the 5×ATP/substrate/Metal solution attached to the kit with the assay buffer. An enzyme solution was prepared by dilution of the CDK2/cyclin A2 attached to the kit with the assay buffer to a concentration twice higher than the final concentration (final concentration of CDK2/cyclin A2: 2.5 ng/well). A detection reagent was prepared by five-fold dilution of 5×IMAP-binding buffer A with distilled water and 400-fold dilution of the IMAP-binding reagent with the diluted buffer.
The test compound solution (5 μL/well) and the ATP/substrate/Metal solution (5 μL/well) were added to a 384-well plate, and the enzyme solution or the assay buffer (10 μL/well) was added to the plate (total amount of the reaction mixture: 20 μL/well) for initiation of enzymatic reaction. […] The reaction was performed at room temperature for 60 minutes, and the detection reagent (60 μL/well) was then added to the plate, followed by further reaction for 30 minutes at room temperature under light shielding conditions. Subsequently, fluorescent polarization was determined with a microplate reader at an excitation wavelength of 485 nm and an emission wavelength of 535 nm.
The percent inhibition of enzyme activity was calculated for each test compound (note: enzyme activity=100% in the case of addition of the enzyme solution and addition of DMSO instead of the test compound solution, whereas enzyme activity=0% in the case of addition of the assay buffer instead of the enzyme solution and addition of DMSO instead of the test compound solution). The percent inhibition of enzyme activity was fitted to a dose-response curve, to determine a 50% inhibitory concentration against CDK2/cyclin A2. […]

CDK4/cyclin D3 = CDK4/cyclin D3 (Homo sapiens, UniProt P11802); assay: Human CDK4/cyclin D3 inhibitory activity (QS S Assist CDK4/Cyclin D3_FP Kit, IMAP fluorescence polarization); conditions: read-out: CDK4 Activity symbol
Protocol: Human CDK4/Cyclin D3 Inhibitory Activity
as §1, with “CDK4/cyclin D3” for “CDK2/cyclin A2”, “CDK4/Cyclin D3_FP” for “CDK2/Cyclin A2_FP”
Each solution was prepared with the 10× assay buffer attached to the kit or a separately prepared assay buffer having the same composition as the assay buffer attached to the kit. An assay buffer was prepared by 10-fold dilution of the 10× assay buffer with distilled water. The assay buffer contains 20 mM HEPES (pH 7.4), 0.01% Tween20, and 2 mM dithiothreitol. A test compound solution was prepared by dilution of the test compound with dimethyl sulfoxide (DMSO) to a concentration 100 times higher than the final concentration and then 25-fold dilution with the assay buffer to a concentration four times higher than the final concentration. An ATP/substrate/Metal solution was prepared by five-fold dilution of the 5×ATP/substrate/Metal solution attached to the kit with the assay buffer. An enzyme solution was prepared by dilution of the CDK4/cyclin D3 attached to the kit with the assay buffer to a concentration twice higher than the final concentration (final concentration of CDK4/cyclin D3:12.5 to 25 ng/well). A detection reagent was prepared by five-fold dilution of each of 5× IMAP-binding buffer A and 5×IMAP-binding buffer B with distilled water, mixing of IMAP-binding buffer A with IMAP-binding buffer B at a ratio of 85:15, and 400-fold dilution of the IMAP-binding reagent with the mixed buffer.
The test compound solution (5 μL/well) and the ATP/substrate/Metal solution (5 μL/well) were added to a 384-well plate, and the enzyme solution or the assay buffer (10 μL/well) was added to the plate (total amount of the reaction mixture: 20 μL/well) for initiation of enzymatic reaction. […] Subsequently, fluorescent polarization was determined with a microplate reader at an excitation wavelength of 485 nm and an emission wavelength of 535 nm.
The percent inhibition of enzyme activity was calculated for each test compound (note: enzyme activity=100% in the case of addition of the enzyme solution and addition of DMSO instead of the test compound solution, whereas enzyme activity=0% in the case of addition of the assay buffer instead of the enzyme solution, and addition of DMSO instead of the test compound solution). […]

[1] = 50% inhibitory concentration against CDK2/cyclin A2, given as class symbol
[2] = 50% inhibitory concentration against CDK4/cyclin D3, given as class symbol
[3] = Human CDK2/cyclin A2 inhibitory activity
[4] = Human CDK4/cyclin D3 inhibitory activity

| pIC50 (CDK2/cyclin A2; [1]) | pIC50 (CDK4/cyclin D3; [2]) | pIC50 (CDK2/cyclin A2; [3]) | pIC50 (CDK4/cyclin D3; [4]) | Structure (SMILES) |
| --- | --- | --- | --- | --- |
| < 7.00 | > 8.00 |  |  | CCN(CC)Cc1ccc(Nc2ncc3cc([C@@H](C)O)nc(NC(C)C)c3n2)nc1 |
|  |  | < 7.00 | > 8.00 | CO[C@H](C)c1cc2cnc(Nc3ccc(CN4CCNCC4)cn3)nc2c(N[C@H]2CCOC2)n1 |
| < 7.00 | > 8.00 |  |  | C[C@@H](O)c1cc2cnc(Nc3ccc(CN4CCC(O)CC4)cn3)nc2c(NCC2CC2)n1 |
|  |  | < 7.00 | < 7.00 | CC(O)c1cc2cnc(Nc3ccc(N4CCNCC4)cn3)nc2c(NC2COC2)n1 (centres unmarked) |
